{
  "sequences": {"note": "Chains of the proteins cited; added tags and fusions are not shown. Lines headed by an entry give the natural chain unless they say otherwise; changes in a name come on top.", "UniProt Q12866": "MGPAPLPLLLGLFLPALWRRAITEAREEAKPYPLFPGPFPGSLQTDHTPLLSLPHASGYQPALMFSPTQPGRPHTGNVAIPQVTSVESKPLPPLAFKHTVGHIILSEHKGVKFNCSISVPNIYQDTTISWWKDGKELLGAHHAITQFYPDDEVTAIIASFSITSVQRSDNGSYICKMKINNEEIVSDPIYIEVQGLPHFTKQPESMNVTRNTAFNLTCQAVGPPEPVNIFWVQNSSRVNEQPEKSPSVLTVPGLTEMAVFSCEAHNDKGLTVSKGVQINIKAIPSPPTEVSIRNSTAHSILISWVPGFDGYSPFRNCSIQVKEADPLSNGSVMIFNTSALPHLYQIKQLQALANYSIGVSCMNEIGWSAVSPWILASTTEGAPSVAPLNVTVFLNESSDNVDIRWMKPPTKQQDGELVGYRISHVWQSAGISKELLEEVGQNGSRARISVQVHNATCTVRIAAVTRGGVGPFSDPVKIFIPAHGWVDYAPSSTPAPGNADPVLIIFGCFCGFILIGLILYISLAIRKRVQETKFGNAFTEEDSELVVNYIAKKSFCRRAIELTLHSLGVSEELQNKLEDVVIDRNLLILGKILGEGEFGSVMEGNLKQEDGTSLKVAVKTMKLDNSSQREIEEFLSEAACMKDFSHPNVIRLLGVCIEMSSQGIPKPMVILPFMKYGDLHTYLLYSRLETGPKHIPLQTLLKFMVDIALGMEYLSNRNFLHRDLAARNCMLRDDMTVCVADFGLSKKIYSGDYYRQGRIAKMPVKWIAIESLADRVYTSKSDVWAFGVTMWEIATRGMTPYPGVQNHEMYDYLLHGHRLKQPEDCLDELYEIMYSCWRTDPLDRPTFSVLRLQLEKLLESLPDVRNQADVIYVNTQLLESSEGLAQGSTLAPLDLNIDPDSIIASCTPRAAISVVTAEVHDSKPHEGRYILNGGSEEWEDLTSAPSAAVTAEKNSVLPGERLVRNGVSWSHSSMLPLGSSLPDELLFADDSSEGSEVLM", "UniProt Q13164": "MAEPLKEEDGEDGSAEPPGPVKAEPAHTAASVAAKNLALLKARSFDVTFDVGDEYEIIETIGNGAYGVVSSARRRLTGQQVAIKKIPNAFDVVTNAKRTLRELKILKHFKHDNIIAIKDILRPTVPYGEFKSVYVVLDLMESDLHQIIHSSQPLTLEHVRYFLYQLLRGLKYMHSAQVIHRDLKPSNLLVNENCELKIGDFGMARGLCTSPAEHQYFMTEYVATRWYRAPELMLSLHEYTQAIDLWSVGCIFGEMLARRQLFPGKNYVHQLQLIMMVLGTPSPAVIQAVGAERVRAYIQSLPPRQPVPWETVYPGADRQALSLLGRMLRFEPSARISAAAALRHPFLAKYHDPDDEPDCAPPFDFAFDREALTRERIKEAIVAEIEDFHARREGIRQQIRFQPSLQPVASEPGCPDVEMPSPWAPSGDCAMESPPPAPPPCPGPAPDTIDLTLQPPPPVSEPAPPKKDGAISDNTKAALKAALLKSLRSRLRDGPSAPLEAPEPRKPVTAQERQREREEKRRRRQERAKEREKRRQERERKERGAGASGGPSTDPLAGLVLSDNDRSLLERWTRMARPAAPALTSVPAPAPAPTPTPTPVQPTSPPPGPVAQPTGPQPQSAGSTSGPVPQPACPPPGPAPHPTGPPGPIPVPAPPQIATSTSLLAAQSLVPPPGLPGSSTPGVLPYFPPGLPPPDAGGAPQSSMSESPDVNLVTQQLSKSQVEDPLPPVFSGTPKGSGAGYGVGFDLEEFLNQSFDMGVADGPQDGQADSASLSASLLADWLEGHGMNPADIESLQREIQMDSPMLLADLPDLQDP", "UniProt P06493, whole entry": "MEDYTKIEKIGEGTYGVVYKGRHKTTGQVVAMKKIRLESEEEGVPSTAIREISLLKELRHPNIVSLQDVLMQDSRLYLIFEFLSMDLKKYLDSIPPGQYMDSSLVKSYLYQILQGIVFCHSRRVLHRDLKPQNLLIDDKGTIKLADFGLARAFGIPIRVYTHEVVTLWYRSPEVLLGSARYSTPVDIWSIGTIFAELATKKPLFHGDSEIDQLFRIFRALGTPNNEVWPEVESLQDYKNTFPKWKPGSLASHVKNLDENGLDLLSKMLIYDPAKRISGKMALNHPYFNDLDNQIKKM", "UniProt Q8TDX7": "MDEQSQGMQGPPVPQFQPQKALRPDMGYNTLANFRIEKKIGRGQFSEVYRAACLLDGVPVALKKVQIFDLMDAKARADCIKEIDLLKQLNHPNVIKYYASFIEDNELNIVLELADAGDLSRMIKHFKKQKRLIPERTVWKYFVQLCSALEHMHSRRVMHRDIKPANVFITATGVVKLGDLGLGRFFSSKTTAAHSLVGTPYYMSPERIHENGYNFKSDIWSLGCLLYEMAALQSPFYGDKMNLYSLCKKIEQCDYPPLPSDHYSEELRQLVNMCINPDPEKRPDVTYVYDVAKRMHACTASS", "UniProt Q13188": "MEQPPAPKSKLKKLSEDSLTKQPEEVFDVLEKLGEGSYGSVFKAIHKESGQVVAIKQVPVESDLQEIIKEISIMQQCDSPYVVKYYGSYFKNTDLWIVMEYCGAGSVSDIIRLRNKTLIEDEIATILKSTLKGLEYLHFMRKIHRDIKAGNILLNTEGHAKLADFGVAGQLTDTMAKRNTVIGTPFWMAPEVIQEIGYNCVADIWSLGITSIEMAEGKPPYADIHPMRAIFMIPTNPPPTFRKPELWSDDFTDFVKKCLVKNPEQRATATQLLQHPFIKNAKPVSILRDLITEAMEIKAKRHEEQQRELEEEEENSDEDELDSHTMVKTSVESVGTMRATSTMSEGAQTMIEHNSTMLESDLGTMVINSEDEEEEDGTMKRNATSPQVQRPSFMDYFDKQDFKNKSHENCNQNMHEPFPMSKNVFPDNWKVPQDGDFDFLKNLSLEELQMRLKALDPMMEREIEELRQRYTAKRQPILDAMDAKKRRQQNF", "UniProt O75385": "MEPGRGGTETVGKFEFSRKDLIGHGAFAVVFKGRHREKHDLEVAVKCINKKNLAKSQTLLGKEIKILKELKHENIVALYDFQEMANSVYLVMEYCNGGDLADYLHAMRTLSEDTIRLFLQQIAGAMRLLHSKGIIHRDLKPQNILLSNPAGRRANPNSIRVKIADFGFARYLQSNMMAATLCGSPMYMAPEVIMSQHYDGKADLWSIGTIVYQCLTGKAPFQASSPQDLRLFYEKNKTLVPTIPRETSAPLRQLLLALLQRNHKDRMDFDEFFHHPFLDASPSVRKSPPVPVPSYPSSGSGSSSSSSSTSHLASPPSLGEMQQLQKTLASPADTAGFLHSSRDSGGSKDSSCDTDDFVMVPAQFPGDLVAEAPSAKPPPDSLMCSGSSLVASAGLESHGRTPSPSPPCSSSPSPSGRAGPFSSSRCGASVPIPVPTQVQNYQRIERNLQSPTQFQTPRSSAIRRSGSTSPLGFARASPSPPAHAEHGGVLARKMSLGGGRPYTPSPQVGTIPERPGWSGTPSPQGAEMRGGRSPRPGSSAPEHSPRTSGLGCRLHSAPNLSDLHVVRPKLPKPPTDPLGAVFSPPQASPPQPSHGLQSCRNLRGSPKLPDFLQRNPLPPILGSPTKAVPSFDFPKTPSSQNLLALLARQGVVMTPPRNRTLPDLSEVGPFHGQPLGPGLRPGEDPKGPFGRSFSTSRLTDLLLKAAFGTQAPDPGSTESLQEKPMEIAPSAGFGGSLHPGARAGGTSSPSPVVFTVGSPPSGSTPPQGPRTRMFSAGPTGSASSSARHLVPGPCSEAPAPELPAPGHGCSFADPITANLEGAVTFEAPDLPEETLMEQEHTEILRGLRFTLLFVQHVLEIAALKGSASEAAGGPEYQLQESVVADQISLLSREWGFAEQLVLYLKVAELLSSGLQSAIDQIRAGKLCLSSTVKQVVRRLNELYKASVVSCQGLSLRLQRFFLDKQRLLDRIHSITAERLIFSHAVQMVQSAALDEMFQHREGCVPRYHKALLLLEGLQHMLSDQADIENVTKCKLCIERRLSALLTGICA", "UniProt Q9UEE5": "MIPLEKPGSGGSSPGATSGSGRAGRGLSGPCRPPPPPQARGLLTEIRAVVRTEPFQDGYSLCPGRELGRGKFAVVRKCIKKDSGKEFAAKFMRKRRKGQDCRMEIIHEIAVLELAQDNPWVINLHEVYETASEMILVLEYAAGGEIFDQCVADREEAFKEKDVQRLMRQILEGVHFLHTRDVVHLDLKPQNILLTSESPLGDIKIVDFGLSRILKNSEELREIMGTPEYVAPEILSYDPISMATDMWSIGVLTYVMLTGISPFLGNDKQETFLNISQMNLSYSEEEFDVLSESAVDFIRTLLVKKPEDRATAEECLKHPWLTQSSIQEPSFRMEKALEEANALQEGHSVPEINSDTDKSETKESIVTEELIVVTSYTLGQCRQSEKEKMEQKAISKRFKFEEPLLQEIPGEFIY", "UniProt P54762": "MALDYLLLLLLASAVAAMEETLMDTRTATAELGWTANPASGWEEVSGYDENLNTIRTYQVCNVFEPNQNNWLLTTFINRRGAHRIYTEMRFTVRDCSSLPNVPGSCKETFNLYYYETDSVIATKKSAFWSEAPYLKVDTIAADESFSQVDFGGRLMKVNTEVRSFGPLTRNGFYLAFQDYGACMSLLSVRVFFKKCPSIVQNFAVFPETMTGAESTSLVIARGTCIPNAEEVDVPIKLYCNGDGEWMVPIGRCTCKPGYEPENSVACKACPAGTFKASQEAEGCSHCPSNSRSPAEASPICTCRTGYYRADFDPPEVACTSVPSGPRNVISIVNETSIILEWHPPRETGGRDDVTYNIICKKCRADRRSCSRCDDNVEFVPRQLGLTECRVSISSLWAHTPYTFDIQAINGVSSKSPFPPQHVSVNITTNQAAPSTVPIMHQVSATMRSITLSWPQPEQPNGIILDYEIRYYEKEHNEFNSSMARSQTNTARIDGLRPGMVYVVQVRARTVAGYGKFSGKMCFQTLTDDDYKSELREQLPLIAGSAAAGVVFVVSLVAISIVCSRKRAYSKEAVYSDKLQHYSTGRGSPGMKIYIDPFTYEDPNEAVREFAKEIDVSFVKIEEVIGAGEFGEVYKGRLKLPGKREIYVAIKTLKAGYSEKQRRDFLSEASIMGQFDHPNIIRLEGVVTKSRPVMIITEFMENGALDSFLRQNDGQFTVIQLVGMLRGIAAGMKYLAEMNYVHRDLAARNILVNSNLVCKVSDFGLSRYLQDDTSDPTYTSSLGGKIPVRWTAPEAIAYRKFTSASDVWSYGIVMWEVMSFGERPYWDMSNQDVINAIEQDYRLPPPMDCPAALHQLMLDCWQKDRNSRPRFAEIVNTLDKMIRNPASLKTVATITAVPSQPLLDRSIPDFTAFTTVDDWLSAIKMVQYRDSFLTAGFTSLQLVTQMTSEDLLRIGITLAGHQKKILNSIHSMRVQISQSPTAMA", "UniProt Q16512": "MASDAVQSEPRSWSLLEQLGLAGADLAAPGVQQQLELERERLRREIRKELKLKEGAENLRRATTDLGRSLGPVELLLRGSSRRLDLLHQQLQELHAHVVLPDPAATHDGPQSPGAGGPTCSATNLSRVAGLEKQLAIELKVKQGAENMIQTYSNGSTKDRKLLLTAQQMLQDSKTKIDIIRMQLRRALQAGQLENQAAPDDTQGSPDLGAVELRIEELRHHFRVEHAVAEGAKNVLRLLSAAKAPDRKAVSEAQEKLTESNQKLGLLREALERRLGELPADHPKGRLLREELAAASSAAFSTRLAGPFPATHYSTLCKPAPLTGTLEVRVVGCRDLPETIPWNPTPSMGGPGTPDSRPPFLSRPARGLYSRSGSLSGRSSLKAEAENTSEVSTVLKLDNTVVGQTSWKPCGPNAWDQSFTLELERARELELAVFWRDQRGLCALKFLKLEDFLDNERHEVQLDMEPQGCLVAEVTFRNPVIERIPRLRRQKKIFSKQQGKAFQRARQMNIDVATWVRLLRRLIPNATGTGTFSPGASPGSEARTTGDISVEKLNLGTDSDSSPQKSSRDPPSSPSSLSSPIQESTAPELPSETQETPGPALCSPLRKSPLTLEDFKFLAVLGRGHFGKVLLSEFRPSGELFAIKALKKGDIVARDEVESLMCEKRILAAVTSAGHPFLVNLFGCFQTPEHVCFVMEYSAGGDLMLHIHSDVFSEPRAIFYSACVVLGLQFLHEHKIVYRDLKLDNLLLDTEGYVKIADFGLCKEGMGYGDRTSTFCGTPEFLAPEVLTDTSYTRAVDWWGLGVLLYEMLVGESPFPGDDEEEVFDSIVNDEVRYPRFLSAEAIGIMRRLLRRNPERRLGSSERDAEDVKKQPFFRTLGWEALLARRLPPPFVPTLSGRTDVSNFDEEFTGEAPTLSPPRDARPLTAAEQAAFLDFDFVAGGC", "UniProt P11802": "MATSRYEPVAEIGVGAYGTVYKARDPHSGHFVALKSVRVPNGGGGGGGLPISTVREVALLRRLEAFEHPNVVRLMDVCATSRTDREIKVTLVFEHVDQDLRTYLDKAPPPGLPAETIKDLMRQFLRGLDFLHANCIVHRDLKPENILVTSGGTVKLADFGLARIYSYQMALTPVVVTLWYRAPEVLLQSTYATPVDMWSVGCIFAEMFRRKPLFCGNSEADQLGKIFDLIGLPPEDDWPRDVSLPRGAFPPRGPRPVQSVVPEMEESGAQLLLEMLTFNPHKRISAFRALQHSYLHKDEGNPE"},
  "source": "paper PMC7611940",
  "about": "“A Conformation Selective Mode of Inhibiting SRC Improves Drug Efficacy and Tolerability” (Cancer Research, 2021)",
  "assay_in_all_cases": "biochemical",
  "conditions_in_all_cases": "read-out: % remaining activity",
  "key": {"[1]": {"biological_target": "JAK1 (Homo sapiens, UniProt P23458)"}, "[2]": {"biological_target": "PIM3 (Homo sapiens, UniProt Q86V86)"}, "[3]": {"biological_target": "T1, MER (Homo sapiens, UniProt Q12866)", "T1 construct": "gene MERTK"}, "[4]": {"biological_target": "T2, ERK5 (Homo sapiens, UniProt Q13164)", "T2 construct": "gene MAPK7"}, "[5]": {"biological_target": "STK32C (Homo sapiens, UniProt Q86UX6)"}, "[6]": {"biological_target": "PAK5 (Homo sapiens, UniProt Q9P286)"}, "[7]": {"biological_target": "T3, YSK1 (Homo sapiens, UniProt O00506)", "T3 construct": "gene STK25"}, "[8]": {"biological_target": "CDK1/cyclin E (Homo sapiens, UniProt P06493)"}, "[9]": {"biological_target": "NEK7 (Homo sapiens, UniProt Q8TDX7)"}, "[10]": {"biological_target": "SLK (Homo sapiens, UniProt Q9H2G2)"}, "[11]": {"biological_target": "T4, VEGFR2 (Homo sapiens, UniProt P35968)", "T4 construct": "gene KDR"}, "[12]": {"biological_target": "T5, OSR1 (Homo sapiens, UniProt O95747)", "T5 construct": "gene OXSR1"}, "[13]": {"biological_target": "T6, PKCb2 (Homo sapiens, UniProt P05771)", "T6 construct": "gene PRKCB"}, "[14]": {"biological_target": "LATS1 (Homo sapiens, UniProt O95835)"}, "[15]": {"biological_target": "FES (Homo sapiens, UniProt P07332)"}, "[16]": {"biological_target": "TAOK2 (Homo sapiens, UniProt Q9UL54)"}, "[17]": {"biological_target": "T7, MST2 (Homo sapiens, UniProt Q13188)", "T7 construct": "gene STK3"}, "[18]": {"biological_target": "ULK1 (Homo sapiens, UniProt O75385)"}, "[19]": {"biological_target": "T8, TRKB (Homo sapiens, UniProt Q16620)", "T8 construct": "gene NTRK2"}, "[20]": {"biological_target": "T9, p38-beta (Homo sapiens, UniProt Q15759)", "T9 construct": "gene MAPK11"}, "[21]": {"biological_target": "STK17A (Homo sapiens, UniProt Q9UEE5)"}, "[22]": {"biological_target": "MET (Homo sapiens, UniProt P08581)"}, "[23]": {"biological_target": "EPHB1 (Homo sapiens, UniProt P54762)"}, "[24]": {"biological_target": "PKN1 (Homo sapiens, UniProt Q16512)"}, "[25]": {"biological_target": "MAP4K2 (Homo sapiens, UniProt Q12851)"}, "[26]": {"biological_target": "PAK2 (Homo sapiens, UniProt Q13177)"}, "[27]": {"biological_target": "PLK2 (Homo sapiens, UniProt Q9NYY3)"}, "[28]": {"biological_target": "MYLK3 (Homo sapiens, UniProt Q32MK0)"}, "[29]": {"biological_target": "CDK9/cyclin K (Homo sapiens, UniProt P50750)"}, "[30]": {"biological_target": "CLK4 (Homo sapiens, UniProt Q9HAZ1)"}, "[31]": {"biological_target": "CDK4/cyclin D3 (Homo sapiens, UniProt P11802)"}, "[32]": {"biological_target": "T10, CK1d (Homo sapiens, UniProt P48730)", "T10 construct": "gene CSNK1D"}, "[33]": {"biological_target": "NEK4 (Homo sapiens, UniProt P51957)"}, "[34]": {"biological_target": "ALK (Homo sapiens, UniProt Q9UM73)"}, "[35]": {"biological_target": "T11, MINK (Homo sapiens, UniProt Q8N4C8)", "T11 construct": "gene MINK1"}, "[36]": {"biological_target": "T12, MEKK1 (Homo sapiens, UniProt Q13233)", "T12 construct": "gene MAP3K1"}},
  "data": [
    {"smiles": "COc1cc(-c2nn(CCN3CCC(N(C)C)CC3)c3ncnc(N)c23)ccc1NC(=O)OC(C)(C)C", "note": "[eCF506]", "values": [
      {"measurement": "remaining activity at 1 µM", "setting": "[1]", "value": 102, "unit": "%"},
      {"measurement": "remaining activity at 1 µM", "setting": "[2]", "value": 90.6, "unit": "%"},
      {"measurement": "remaining activity at 1 µM", "setting": "[3]", "value": 30.1, "unit": "%"},
      {"measurement": "remaining activity at 1 µM", "setting": "[4]", "value": 98.4, "unit": "%"},
      {"measurement": "remaining activity at 1 µM", "setting": "[5]", "value": 116, "unit": "%"},
      {"measurement": "remaining activity at 1 µM", "setting": "[6]", "value": 104, "unit": "%"},
      {"measurement": "remaining activity at 1 µM", "setting": "[7]", "value": 112, "unit": "%"},
      {"measurement": "remaining activity at 1 µM", "setting": "[8]", "value": 106, "unit": "%"},
      {"measurement": "remaining activity at 1 µM", "setting": "[9]", "value": 81.3, "unit": "%"},
      {"measurement": "remaining activity at 1 µM", "setting": "[10]", "value": 102, "unit": "%"},
      {"measurement": "remaining activity at 1 µM", "setting": "[11]", "value": 120, "unit": "%"},
      {"measurement": "remaining activity at 1 µM", "setting": "[12]", "value": 103, "unit": "%"},
      {"measurement": "remaining activity at 1 µM", "setting": "[13]", "value": 89.1, "unit": "%"},
      {"measurement": "remaining activity at 1 µM", "setting": "[14]", "value": 102, "unit": "%"},
      {"measurement": "remaining activity at 1 µM", "setting": "[15]", "value": 109, "unit": "%"},
      {"measurement": "remaining activity at 1 µM", "setting": "[16]", "value": 96.9, "unit": "%"},
      {"measurement": "remaining activity at 1 µM", "setting": "[17]", "value": 97.4, "unit": "%"},
      {"measurement": "remaining activity at 1 µM", "setting": "[18]", "value": 93.9, "unit": "%"},
      {"measurement": "remaining activity at 1 µM", "setting": "[19]", "value": 95.9, "unit": "%"},
      {"measurement": "remaining activity at 1 µM", "setting": "[20]", "value": 97.4, "unit": "%"},
      {"measurement": "remaining activity at 1 µM", "setting": "[21]", "value": 104, "unit": "%"},
      {"measurement": "remaining activity at 1 µM", "setting": "[22]", "value": 87.5, "unit": "%"},
      {"measurement": "remaining activity at 1 µM", "setting": "[23]", "value": 116, "unit": "%"},
      {"measurement": "remaining activity at 1 µM", "setting": "[24]", "value": 92.1, "unit": "%"},
      {"measurement": "remaining activity at 1 µM", "setting": "[25]", "value": 90.6, "unit": "%"},
      {"measurement": "remaining activity at 1 µM", "setting": "[26]", "value": 71.2, "unit": "%"},
      {"measurement": "remaining activity at 1 µM", "setting": "[27]", "value": 99.2, "unit": "%"},
      {"measurement": "remaining activity at 1 µM", "setting": "[28]", "value": 101, "unit": "%"},
      {"measurement": "remaining activity at 1 µM", "setting": "[29]", "value": 95.7, "unit": "%"},
      {"measurement": "remaining activity at 1 µM", "setting": "[30]", "value": 101, "unit": "%"},
      {"measurement": "remaining activity at 1 µM", "setting": "[31]", "value": 96.6, "unit": "%"},
      {"measurement": "remaining activity at 1 µM", "setting": "[32]", "value": 102, "unit": "%"},
      {"measurement": "remaining activity at 1 µM", "setting": "[33]", "value": 103, "unit": "%"},
      {"measurement": "remaining activity at 1 µM", "setting": "[34]", "value": 102, "unit": "%"},
      {"measurement": "remaining activity at 1 µM", "setting": "[35]", "value": 129, "unit": "%"},
      {"measurement": "remaining activity at 1 µM", "setting": "[36]", "value": 100, "unit": "%"}
    ]}
  ]
}
